# Data reported in paper PMC6733504, “Effects of flavoring compounds used in electronic cigarette refill liquids on endothelial and vascular function” (PLoS ONE, 2019).
# Biological target: T1, soluble guanylate cyclase (sGC) (Bos taurus, UniProt P16068+P19687)
# T1 construct: The activity of sGC purified from bovine lung; from tissue; host or cells: bovine lung
# T1 sequence (P19687 1-691): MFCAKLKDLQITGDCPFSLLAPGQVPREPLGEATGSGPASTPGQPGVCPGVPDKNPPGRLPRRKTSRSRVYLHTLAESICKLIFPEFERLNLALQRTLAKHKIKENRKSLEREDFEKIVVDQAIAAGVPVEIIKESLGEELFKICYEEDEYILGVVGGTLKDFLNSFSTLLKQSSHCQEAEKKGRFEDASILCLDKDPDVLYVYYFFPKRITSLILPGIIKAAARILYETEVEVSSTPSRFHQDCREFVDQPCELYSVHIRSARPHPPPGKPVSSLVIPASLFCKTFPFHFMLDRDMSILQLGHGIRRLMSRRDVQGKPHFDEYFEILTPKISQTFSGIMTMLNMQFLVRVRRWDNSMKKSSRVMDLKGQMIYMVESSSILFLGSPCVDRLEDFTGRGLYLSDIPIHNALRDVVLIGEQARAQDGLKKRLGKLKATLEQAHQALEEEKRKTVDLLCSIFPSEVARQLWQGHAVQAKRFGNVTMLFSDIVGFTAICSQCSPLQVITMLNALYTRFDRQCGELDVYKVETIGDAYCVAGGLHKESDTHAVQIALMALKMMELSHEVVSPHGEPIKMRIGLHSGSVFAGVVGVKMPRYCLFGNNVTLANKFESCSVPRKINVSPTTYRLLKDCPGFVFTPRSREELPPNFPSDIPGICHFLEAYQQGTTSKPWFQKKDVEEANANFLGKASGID
# T1 sequence (P16068 1-619): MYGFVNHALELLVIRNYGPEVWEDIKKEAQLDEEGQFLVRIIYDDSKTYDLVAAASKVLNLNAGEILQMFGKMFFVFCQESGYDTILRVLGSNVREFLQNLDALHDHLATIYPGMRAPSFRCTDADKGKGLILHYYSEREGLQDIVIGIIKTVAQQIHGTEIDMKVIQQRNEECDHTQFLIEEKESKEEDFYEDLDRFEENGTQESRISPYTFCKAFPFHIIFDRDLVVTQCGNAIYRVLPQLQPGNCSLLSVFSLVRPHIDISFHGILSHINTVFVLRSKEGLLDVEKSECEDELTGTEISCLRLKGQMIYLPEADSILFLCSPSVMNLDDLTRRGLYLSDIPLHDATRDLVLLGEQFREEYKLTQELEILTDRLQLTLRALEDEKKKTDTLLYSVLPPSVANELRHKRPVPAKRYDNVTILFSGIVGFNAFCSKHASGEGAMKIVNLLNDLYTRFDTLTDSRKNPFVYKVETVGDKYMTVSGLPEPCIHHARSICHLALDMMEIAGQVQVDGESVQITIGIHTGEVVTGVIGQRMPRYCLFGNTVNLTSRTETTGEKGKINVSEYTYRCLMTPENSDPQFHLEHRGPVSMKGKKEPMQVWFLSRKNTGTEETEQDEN
# Assay: Activity of purified sGC stimulated with DEA/NO
# Type: biochemical, bovine
# Conditions: flavoring 1 mM, DEA/NO 0.01–10 μM
# Description: The activity of sGC purified from bovine lung was determined as formation of [^32P]cGMP from [α-^32P]GTP. The purified enzyme (50 ng) was incubated at 37°C for 10 min in a final volume of 0.1 ml in the absence or presence of flavorings with the NO donor DEA/NO at concentrations indicated in the figure legends, followed by isolation of [^32P]cGMP and quantification of radioactivity (Cerenkov radiation) in a β counter.
# To test for reversibility of inhibition, sGC (50 ng) was preincubated in the absence or presence of the respective compounds for 5 minutes at 37°C, followed by 50-fold dilution in the assay mixtures and incubation with DEA/NO at 37°C for 10 minutes.
smiles,measurement,value
"CC12CCC(CC1)C(C)(C)O2 [Eucalyptol, 1,3,3-Trimethyl-2-oxabicyclo[2.2.2]octane]",Emax of DEA/NO-stimulated sGC activity in presence of flavoring,26±0.9 µmol cGMP x min-1 x mg-1
